Calls of active or inactive are those of the source. The rule behind the calls is not given here.
Assays:
[1] = molecular target: T1, Mitogen-activated protein kinase 9 (Homo sapiens, UniProt P45984); assay: Inhibition of JNK2 (unknown origin) at 1 uM by kinase profiling assay relative to control
[2] = molecular target: T2, Mitogen-activated protein kinase 8 (Homo sapiens, UniProt P45983); assay: Inhibition of JNK1 (unknown origin) at 1 uM by kinase profiling assay relative to control
[3] = molecular target: Cyclin-dependent kinase-like 3 (Homo sapiens, UniProt Q8IVW4); assay: Inhibition of CDKL3 (unknown origin) at 1 uM by kinase profiling assay relative to control
[4] = molecular target: T3, Serine/threonine-protein kinase D3 (Homo sapiens) (UniProt O94806); assay: Inhibition of PKD3 (unknown origin) at 1 uM by kinase profiling assay relative to control
T3 sequence (whole entry): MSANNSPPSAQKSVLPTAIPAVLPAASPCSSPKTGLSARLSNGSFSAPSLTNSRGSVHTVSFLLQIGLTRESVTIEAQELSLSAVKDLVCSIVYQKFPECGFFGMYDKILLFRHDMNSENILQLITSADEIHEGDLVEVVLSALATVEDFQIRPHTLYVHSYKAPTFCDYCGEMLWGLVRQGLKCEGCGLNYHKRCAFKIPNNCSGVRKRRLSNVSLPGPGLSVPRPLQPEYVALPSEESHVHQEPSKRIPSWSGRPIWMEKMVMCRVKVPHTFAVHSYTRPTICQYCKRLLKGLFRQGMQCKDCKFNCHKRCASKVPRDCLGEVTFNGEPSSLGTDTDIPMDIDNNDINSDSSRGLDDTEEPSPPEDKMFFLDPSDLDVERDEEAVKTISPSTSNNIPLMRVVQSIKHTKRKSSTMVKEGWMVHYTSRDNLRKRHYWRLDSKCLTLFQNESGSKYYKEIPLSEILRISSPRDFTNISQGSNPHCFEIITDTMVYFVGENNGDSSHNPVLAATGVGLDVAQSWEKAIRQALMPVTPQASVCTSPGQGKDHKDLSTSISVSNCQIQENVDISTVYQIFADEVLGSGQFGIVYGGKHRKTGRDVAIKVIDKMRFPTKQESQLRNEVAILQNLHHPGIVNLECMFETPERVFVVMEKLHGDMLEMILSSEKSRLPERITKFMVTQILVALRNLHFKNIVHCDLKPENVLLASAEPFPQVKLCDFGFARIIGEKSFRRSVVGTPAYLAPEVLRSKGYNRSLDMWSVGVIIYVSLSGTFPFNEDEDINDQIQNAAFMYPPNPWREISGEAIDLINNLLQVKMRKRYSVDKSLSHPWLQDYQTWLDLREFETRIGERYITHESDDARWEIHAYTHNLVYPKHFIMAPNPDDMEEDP

Sequences of proteins named here, by UniProt entry; tags and fusion partners are left off. A change or cut given only in a name is not applied to a line headed by its entry.
UniProt P45983: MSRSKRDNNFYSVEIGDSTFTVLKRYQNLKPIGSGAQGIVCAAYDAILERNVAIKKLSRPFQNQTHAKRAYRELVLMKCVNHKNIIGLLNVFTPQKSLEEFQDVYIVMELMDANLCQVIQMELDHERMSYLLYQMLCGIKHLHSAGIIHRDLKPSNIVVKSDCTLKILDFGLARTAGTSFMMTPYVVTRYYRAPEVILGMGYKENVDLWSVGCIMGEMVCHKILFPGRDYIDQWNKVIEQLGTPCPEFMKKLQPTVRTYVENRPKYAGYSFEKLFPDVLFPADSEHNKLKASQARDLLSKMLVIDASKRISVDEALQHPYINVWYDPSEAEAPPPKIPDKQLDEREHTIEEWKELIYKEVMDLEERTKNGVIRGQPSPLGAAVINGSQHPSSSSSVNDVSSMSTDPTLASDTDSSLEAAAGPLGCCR
UniProt Q8IVW4: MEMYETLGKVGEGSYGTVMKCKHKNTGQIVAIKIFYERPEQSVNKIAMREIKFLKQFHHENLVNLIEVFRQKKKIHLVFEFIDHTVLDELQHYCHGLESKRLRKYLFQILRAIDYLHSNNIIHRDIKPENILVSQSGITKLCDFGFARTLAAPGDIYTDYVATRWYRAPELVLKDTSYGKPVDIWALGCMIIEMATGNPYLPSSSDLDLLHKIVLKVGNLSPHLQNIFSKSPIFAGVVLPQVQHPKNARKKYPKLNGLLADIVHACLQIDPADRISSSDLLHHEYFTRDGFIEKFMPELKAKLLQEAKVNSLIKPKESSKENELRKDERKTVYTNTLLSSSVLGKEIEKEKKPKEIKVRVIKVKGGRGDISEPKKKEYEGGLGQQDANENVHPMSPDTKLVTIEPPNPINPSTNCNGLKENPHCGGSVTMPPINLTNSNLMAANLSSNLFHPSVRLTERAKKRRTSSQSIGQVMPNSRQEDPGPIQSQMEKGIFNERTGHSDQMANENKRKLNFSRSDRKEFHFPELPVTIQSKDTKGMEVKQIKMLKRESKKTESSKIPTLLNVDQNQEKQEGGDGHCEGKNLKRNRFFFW
UniProt P35916, whole entry: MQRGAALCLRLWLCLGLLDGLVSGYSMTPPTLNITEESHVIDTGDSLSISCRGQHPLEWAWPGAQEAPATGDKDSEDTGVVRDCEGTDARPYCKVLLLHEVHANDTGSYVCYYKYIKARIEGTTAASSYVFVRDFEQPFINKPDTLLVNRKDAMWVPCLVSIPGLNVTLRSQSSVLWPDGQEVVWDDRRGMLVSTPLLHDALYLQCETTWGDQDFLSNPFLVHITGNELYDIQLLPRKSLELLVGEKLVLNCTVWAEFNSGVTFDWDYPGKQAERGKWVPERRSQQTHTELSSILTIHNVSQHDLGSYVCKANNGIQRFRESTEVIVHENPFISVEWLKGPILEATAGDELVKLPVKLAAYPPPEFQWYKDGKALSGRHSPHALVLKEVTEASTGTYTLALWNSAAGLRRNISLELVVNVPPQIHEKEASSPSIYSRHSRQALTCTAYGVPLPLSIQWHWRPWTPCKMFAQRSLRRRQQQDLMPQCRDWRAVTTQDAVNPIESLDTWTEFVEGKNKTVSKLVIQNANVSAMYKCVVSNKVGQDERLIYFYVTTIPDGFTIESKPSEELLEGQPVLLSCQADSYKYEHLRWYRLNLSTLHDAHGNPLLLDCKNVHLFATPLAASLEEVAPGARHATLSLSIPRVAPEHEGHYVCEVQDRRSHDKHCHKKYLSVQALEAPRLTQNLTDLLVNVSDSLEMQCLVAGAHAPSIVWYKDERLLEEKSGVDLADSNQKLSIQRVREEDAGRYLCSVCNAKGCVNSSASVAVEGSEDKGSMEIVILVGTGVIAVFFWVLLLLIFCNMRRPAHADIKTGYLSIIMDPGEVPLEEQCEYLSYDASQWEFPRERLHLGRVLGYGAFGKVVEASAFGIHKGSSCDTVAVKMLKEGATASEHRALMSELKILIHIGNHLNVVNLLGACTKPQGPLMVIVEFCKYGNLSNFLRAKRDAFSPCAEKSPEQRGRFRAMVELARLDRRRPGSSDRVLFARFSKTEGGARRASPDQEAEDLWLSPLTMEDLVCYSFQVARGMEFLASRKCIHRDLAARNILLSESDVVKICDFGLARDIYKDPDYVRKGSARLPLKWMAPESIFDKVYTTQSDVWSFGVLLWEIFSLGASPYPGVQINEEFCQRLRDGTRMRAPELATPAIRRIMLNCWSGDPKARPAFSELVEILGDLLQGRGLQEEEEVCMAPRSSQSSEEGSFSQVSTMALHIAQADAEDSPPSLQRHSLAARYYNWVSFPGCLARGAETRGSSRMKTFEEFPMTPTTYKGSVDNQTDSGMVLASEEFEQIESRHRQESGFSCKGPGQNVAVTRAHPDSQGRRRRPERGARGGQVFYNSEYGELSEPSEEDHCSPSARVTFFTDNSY
UniProt Q9UKE5: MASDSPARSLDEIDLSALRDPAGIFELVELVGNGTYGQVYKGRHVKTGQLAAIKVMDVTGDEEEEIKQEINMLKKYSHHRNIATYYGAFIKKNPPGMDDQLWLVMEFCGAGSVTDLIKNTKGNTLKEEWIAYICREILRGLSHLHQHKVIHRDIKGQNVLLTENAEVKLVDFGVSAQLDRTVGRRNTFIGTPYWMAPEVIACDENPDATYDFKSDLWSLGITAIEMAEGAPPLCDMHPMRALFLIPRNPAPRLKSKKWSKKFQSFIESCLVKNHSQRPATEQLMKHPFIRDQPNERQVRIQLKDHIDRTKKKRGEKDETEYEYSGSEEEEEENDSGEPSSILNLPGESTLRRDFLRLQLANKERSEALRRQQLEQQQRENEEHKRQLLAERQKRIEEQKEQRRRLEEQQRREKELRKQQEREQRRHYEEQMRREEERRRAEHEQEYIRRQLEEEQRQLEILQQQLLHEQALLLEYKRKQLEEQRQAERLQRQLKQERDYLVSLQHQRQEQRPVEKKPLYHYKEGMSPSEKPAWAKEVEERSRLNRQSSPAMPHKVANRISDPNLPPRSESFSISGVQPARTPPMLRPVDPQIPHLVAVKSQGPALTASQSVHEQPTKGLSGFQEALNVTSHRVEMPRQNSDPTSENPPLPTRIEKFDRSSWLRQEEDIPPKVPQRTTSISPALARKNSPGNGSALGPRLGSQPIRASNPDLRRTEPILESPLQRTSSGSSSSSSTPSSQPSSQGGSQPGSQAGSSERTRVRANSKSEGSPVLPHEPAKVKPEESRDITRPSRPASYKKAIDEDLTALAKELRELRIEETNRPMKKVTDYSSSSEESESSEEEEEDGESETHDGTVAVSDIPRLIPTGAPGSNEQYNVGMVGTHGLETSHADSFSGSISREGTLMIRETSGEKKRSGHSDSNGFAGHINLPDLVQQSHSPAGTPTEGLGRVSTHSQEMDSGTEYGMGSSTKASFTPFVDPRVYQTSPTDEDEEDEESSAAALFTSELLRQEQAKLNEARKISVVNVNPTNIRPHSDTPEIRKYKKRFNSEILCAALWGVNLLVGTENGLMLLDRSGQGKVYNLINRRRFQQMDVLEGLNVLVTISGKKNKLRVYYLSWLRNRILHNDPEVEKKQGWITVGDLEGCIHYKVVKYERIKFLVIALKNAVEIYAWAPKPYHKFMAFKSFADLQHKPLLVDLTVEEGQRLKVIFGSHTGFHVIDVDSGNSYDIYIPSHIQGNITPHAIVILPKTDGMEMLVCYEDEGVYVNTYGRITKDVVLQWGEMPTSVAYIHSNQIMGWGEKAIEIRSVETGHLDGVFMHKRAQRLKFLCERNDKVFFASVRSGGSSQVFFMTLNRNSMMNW

[5] = molecular target: Vascular endothelial growth factor receptor 3 (Homo sapiens, UniProt P35916); assay: Inhibition of FLT4 (unknown origin) at 1 uM by kinase profiling assay relative to control
[6] = molecular target: TRAF2 and NCK-interacting protein kinase (Homo sapiens, UniProt Q9UKE5); assay: Inhibition of TNIK (unknown origin) at 1 uM by kinase profiling assay relative to control
[7] = molecular target: T2, Mitogen-activated protein kinase 8; assay: Stabilization of JNK1 in human SH-SY5Y cells at 30 uM incubated for 6 hrs by CETSA; assay type: cell-based
[8] = molecular target: T1, Mitogen-activated protein kinase 9; assay: Stabilization of JNK2 in human SH-SY5Y cells at 30 uM incubated for 6 hrs by CETSA; assay type: cell-based

O=C(c1cccc(CNc2n[nH]c3cccc(Cl)c23)c1)N1CCN(C(=O)c2ccc(Cl)cc2Cl)CC1
inhibition [1]: 21.3% | inhibition [2]: 16.1% | inhibition [3]: 61.2% | inhibition [4]: 63.6% | inhibition [5]: 74.9% | inhibition [6]: 77.1% | Activity [7]: inactive | Activity [8]: inactive
